Protein sequences, listed by entry. Tags and fused reporters are not part of them.
UniProt Q8NCG7, whole entry: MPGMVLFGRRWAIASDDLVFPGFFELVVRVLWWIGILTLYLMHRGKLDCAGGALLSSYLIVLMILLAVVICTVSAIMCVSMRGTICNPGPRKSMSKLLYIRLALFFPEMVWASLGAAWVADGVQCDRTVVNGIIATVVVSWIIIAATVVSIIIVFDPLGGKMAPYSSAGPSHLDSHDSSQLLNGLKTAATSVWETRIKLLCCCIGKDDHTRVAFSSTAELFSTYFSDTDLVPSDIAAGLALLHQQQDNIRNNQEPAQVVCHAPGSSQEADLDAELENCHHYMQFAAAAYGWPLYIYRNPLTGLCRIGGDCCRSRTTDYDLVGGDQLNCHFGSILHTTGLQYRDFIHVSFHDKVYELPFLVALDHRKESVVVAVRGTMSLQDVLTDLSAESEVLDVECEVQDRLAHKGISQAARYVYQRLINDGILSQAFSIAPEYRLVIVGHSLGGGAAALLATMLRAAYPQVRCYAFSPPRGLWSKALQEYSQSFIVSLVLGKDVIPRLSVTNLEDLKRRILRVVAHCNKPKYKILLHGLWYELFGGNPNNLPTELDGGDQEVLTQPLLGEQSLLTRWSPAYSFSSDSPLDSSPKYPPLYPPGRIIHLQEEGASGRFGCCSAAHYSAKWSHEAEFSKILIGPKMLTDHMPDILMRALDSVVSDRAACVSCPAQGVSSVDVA

The list shows a part of the results, in another mix than the full data. Activity calls are given as the source filed them. Cut-off read from the data, not from the text of the source: active = inhibition above about 34%; inactive = the rest.
Each molecule was assayed against Diacylglycerol lipase-beta (Homo sapiens) (UniProt Q8NCG7) (assay: inhibition of human DAGLB hydrolase activity – biochemical, fluorescence, HTS, primary screen (AID 504411;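 note: 0% = enzyme with vehicle and 100% = wells lacking enzyme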)). Conditions: HEK293T DAGLB membrane lysate, EnzChek fluorogenic substrate; at 5.17 µM; active compounds read high.
`CN(C)C1(CNC(=O)c2cccc(C#N)c2)CCCCC1` was tested, and the inhibition was inactive: -0.33%.
In the case of `CCCN1CCC(Nc2cc(OC)cc(OC)c2)CC1`, the inhibition is reported as inactive: -1.19%.
With `Cc1cc(N(CCCl)CCCl)ccc1C=O` the inhibition was inactive: -1.51%.
For `c1ccc(CN2CCC(Nc3ccccc3)CC2)cc1`, the inhibition was inactive: -1.07%.
`N#Cc1ccc(C(=O)NCC2(N3CCCCC3)CCCCC2)cc1` was tested, and the inhibition was inactive: 0.84%.
With `CC(C)(C)OC(=O)N1CCC(N(C(=O)c2ccccc2)c2ccc(Cl)cc2)CC1` the inhibition was inactive: -3.64%.
With `CCOC(=O)N1CCC(Nc2ccc(C)cc2)CC1` the inhibition was inactive: -5.9%.
With `N/C(=N\O)c1c(N)no[n+]1[O-]` the inhibition was inactive: -0.2%.
For `O=C(OC1CN2CCC1CC2)C1c2ccccc2C=Cc2ccccc21` (stereo not given), the inhibition was inactive: -0.87%.
For `COc1cc(C(=O)NCC2(N3CCOCC3)CCCCC2)cc(OC)c1C`, the inhibition was inactive: -3.64%.
With `O=C(NCC1(N2CCOCC2)CCCCC1)c1cc(Br)ccc1Cl` the inhibition was inactive: -3.35%.
In the case of `COc1ccc(C(=O)NCC2(N3CCOCC3)CCCCC2)cc1OC`, the inhibition is reported as inactive: -0.64%.
`COc1cc(OC)cc(C(=O)NCC2(N3CCOCC3)CCCCC2)c1` was tested, and the inhibition was inactive: -2.75%.
For `COc1cccc(C(=O)N(c2cc(C)cc(C)c2)C2CCN(C(=O)OC(C)(C)C)CC2)c1`, the inhibition was inactive: -6.11%.
For `CCC(CO)(C(=O)OC1CN2CCC1CC2)c1ccccc1` (stereo not given), the inhibition was inactive: -0.32%.
For `CN1CCC(Nc2ccc(Cl)cc2)CC1`, the inhibition was inactive: 0.06%.
For `CN1CCC(Nc2ccc(F)c(Cl)c2)CC1`, the inhibition was inactive: 2.91%.
For `CCOc1ncccc1C(=O)NCC1(N2CCOCC2)CCCCC1`, the inhibition was inactive: -0.27%.
`O=C(O)C1(Nc2ccccc2)CCN(Cc2ccccc2)CC1` was tested, and the inhibition was inactive: -1.19%.
In the case of `CC(C)(C)OC(=O)N1CCC(Nc2ccccc2)CC1`, the inhibition is reported as inactive: 1.52%.
With `CCCOc1ccc(C(=O)NCC2(N(C)C)CCCCC2)cc1` the inhibition was inactive: 0.48%.
For `CCN1CCC(Nc2cccc(F)c2)CC1`, the inhibition was inactive: 6.73%.
`Cc1ccccc1NC1(C#N)CCN(Cc2ccccc2)CC1` was tested, and the inhibition was inactive: 8.34%.
With `Cn1c(=O)[nH]cc(N(CCCl)CCCl)c1=O` the inhibition was inactive: -1.32%.
For `CN(C)c1ccc(C(=O)NCC2(N3CCCCC3)CCCCC2)cc1`, the inhibition was inactive: -2.09%.
`O=C(NCC1(N2CCCCC2)CCCCC1)c1ccco1` was tested, and the inhibition was inactive: -0.37%.
For `CC(=O)N(c1ccccc1)C1CCNCC1`, the inhibition was inactive: -0.71%.
For `COc1cc(OC)cc(C(=O)NCC2(N3CCCCC3)CCCCC2)c1`, the inhibition was inactive: -0.68%.
In the case of `Fc1ccccc1NC1CCN(Cc2ccccc2)CC1`, the inhibition is reported as inactive: 0.44%.
In the case of `Cc1ccc(C(=O)NCC2(N3CCCCC3)CCCCC2)o1`, the inhibition is reported as inactive: 3.6%.
In the case of `Cc1ccc(NC2(C#N)CCN(Cc3ccccc3)CC2)cc1`, the inhibition is reported as inactive: 1.97%.
In the case of `COc1cc(C(=O)NCC2(N(C)C)CCCCC2)ccc1OC(F)F`, the inhibition is reported as inactive: -3.06%.
In the case of `CCOC(=O)N1CCC(Nc2cccc(C)c2)CC1`, the inhibition is reported as inactive: -0.23%.
In the case of `O=C1CCN(Cc2ccccc2)CC1`, the inhibition is reported as inactive: -0.74%.
`CCOc1ccc(C)cc1CN(CCCl)CCCl` was tested, and the inhibition was inactive: -2.08%.
For `COc1ccc(NC2CCN(CCc3ccccc3)CC2)c(OC)c1`, the inhibition was inactive: 0.64%.
In the case of `CCOC(=O)N1CCC(Nc2ccc(F)cc2)CC1`, the inhibition is reported as inactive: -2.5%.
In the case of `O=C(NCC1(N2CCCCC2)CCCCC1)c1ccc(F)cc1`, the inhibition is reported as inactive: -1.51%.
With `O=P1(N(CCCl)CCCl)SCCCS1` the inhibition was inactive: -2%.
For `CCCCOc1ccc(C(=O)NCC2(N3CCOCC3)CCCCC2)cc1`, the inhibition was inactive: -2.11%.
In the case of `Cc1cc(C)cc(N(C(=O)c2ccccc2)C2CCN(C(=O)OC(C)(C)C)CC2)c1`, the inhibition is reported as inactive: -5.1%.
In the case of `O=C(NCC1(N2CCCCC2)CCCCC1)c1ccc(Cl)nc1`, the inhibition is reported as inactive: 2.09%.
For `O=C(NCC1(N2CCOCC2)CCCCC1)c1cc2ccccc2o1`, the inhibition was inactive: -0.23%.
With `COc1ccc(Cl)cc1C(=O)NCC1(N2CCOCC2)CCCCC1` the inhibition was inactive: -0.83%.
With `O=C(OC1CN2CCC1CC2)C1c2ccccc2Oc2ccccc21` (stereo not given) the inhibition was inactive: -0.3%.
With `O=C(NCC1(N2CCCCC2)CCCCC1)c1ccc(Cl)s1` the inhibition was inactive: -3.21%.
In the case of `N#CC1(Nc2ccccc2)CCN(Cc2ccccc2)CC1`, the inhibition is reported as inactive: -2.51%.
With `CCOC(=O)N1CCC(Nc2ccc(OC)cc2)CC1` the inhibition was inactive: -1.42%.
`COc1ccc(C(=O)NCC2(N3CCCCC3)CCCCC2)c(OC)c1OC` was tested, and the inhibition was inactive: 2.54%.
For `CC(C)(C)OC(=O)N1CCC(N(C(=O)c2ccccc2)c2ccc(F)cc2)CC1`, the inhibition was inactive: -0.21%.
For `COc1ccc(C(=O)NCC2(N3CCCCC3)CCCCC2)cc1`, the inhibition was inactive: -2.03%.
In the case of `O=C(NCC1(N2CCCCC2)CCCCC1)c1cccs1`, the inhibition is reported as inactive: 2.18%.
With `O=C(NCC1(N2CCCCC2)CCCCC1)c1ccc(=O)[nH]c1` the inhibition was inactive: 1%.
For `Cc1cccc(NC2(C#N)CCN(Cc3ccccc3)CC2)c1`, the inhibition was inactive: -1.8%.
`CSc1ccccc1C(=O)NCC1(N2CCCCC2)CCCCC1` was tested, and the inhibition was inactive: -4.25%.
With `O=C(NCC1(N2CCCCC2)CCCCC1)c1cncc(Br)c1` the inhibition was inactive: -0.9%.
In the case of `CN1CCC(Nc2cccc(F)c2)CC1`, the inhibition is reported as inactive: 0.38%.
`CCCOc1ccc(C(=O)NCC2(N(C)C)CCCCC2)cc1OC` was tested, and the inhibition was inactive: -1.25%.
`Cc1ccc(C(=O)NCC2(N(C)C)CCCCC2)o1` was tested, and the inhibition was inactive: -0.74%.
In the case of `CC(C)c1ccc(NC2CCN(C(=O)OC(C)(C)C)CC2)cc1`, the inhibition is reported as inactive: -4.42%.
With `CN(C)c1cccc(C(=O)NCC2(N3CCCCC3)CCCCC2)c1` the inhibition was inactive: 4.03%.
`COc1ccc(CN(CCCl)CCCl)cc1Cl` was tested, and the inhibition was inactive: -0.49%.
`O=C(NCC1(N2CCOCC2)CCCCC1)c1cc(F)c(F)cc1Cl` was tested, and the inhibition was inactive: 0.48%.
In the case of `COc1cc(OC)c(C(=O)NCC2(N(C)C)CCCCC2)cc1OC`, the inhibition is reported as inactive: -2.8%.
For `O=C(NCC1(N2CCCCC2)CCCCC1)c1cccc(C(F)(F)F)c1`, the inhibition was inactive: -0.85%.
With `COc1cc(C(=O)NCC2(N3CCCCC3)CCCCC2)ccc1OC(F)F` the inhibition was inactive: -1.89%.
With `O=C(NCC1(N2CCOCC2)CCCCC1)c1cc(=O)[nH]c2ccccc12` the inhibition was inactive: 1.82%.
For `CN1CCN(CCOC(=O)C(O)(c2ccccc2)c2ccccc2)CC1`, the inhibition was inactive: 0.77%.
`COc1ccc(NC2CCN(C(=O)OC(C)(C)C)CC2)cc1` was tested, and the inhibition was inactive: -1.43%.
In the case of `CC(C)c1ccc(C(=O)NCC2(N3CCOCC3)CCCCC2)cc1`, the inhibition is reported as inactive: -0.55%.
`O=C(NCC1(N2CCCCC2)CCCCC1)c1ccc(OC(F)F)cc1` was tested, and the inhibition was inactive: 1.19%.
In the case of `N#CC1(Nc2ccccc2)CCN(CCc2ccccc2)CC1`, the inhibition is reported as inactive: -2.89%.
In the case of `CCN1CCC(Nc2ccc(Cl)cc2)CC1`, the inhibition is reported as inactive: -1.08%.
In the case of `O=C(NCC1(N2CCCCC2)CCCCC1)c1cccc([N+](=O)[O-])c1`, the inhibition is reported as inactive: 0.92%.
In the case of `CSc1ccc(C(=O)NCC2(N3CCOCC3)CCCCC2)cc1`, the inhibition is reported as inactive: -0.6%.

Source: PubChem BioAssay AID504411 (The Scripps Research Institute Molecular Screening Center, 2011)
